{
  "source": "paper PMC10983004",
  "about": "(Journal of Medicinal Chemistry, 2024)",
  "key": {"TET2CDΔLCI [1]": {"molecular_target": "T1, TET2CDΔLCI (Homo sapiens, UniProt Q6N021)", "test": "biochemical", "format": "biochemical", "conditions": "for inhibition at 100 µM: read-out: AlphaScreen TET2CDΔLCI, % inhibition at 100 μM"}, "TET2CDΔLCI [2]": {"molecular_target": "T1, TET2CDΔLCI", "conditions": "read-out: KM (2OG) TET2CDΔLCI (reported MS method); cited from earlier work"}, "TET2CDΔLCI [3]": {"molecular_target": "T1, TET2CDΔLCI", "test": "biochemical", "format": "biochemical"}},
  "note": "Like-named read-outs stand apart in the source and are kept apart here.",
  "data": [
    {"smiles": "Cc1nc(C(=O)NCC(=O)O)c(O)c2ccc(Oc3ccccc3)cc12", "note": "[Roxadustat]", "values": [
      {"measurement": "AlphaScreen TET2CDΔLCI, % inhibition at 100 μM", "setting": "TET2CDΔLCI [1]", "result": "N.I."}
    ]},
    {"smiles": "O.O.O=C([O-])CCC(=O)C(=O)[O-].[Na+].[Na+]", "note": "[2OG, 2-oxoglutarate]", "values": [
      {"measurement": "KMapp (2OG) TET2CDΔLCI", "setting": "TET2CDΔLCI [1]", "result": "4.9 ± 0.3", "unit": "µM"},
      {"measurement": "Km", "setting": "TET2CDΔLCI [2]", "result": "15.7 ± 2.8", "unit": "µM"},
      {"measurement": "KMapp (2OG) TET2CDΔLCI (SPE-MS)", "setting": "TET2CDΔLCI [3]", "result": "3.0 ± 0.6", "unit": "µM"}
    ]},
    {"smiles": "CC(C)C(=O)NC(c1ccco1)c1ccc2cccnc2c1O", "note": "(stereo not shown) [SD70]", "values": [
      {"measurement": "inhibition at 100 µM", "setting": "TET2CDΔLCI [1]", "result": 54, "unit": "%"},
      {"measurement": "inhibition at 100 µM", "setting": "TET2CDΔLCI [3]; read-out: SPE-MS TET2CDΔLCI, % inhibition at 100 μM", "result": 58, "unit": "%"}
    ]},
    {"smiles": "CC(C)c1c(-c2ccccc2)[nH]c2c(C#N)cnn2c1=O", "note": "[CPI455]", "values": [
      {"measurement": "AlphaScreen TET2CDΔLCI, % inhibition at 100 μM", "setting": "TET2CDΔLCI [1]", "result": "N.I."},
      {"measurement": "SPE-MS TET2CDΔLCI, % inhibition at 100 μM", "setting": "TET2CDΔLCI [3]; at 100 μM, incomplete dose–response curve, N.I. = no inhibition at 100 μM (<20%)", "result": "N.I."}
    ]},
    {"smiles": "O=C(O)CNC(=O)c1c(O)c2ccccc2n(Cc2ccccc2)c1=O", "note": "[IOX2]", "values": [
      {"measurement": "inhibition at 100 µM", "setting": "TET2CDΔLCI [1]", "result": 33, "unit": "%"},
      {"measurement": "IC50", "setting": "TET2CDΔLCI [3]", "result": 16.6, "unit": "µM"}
    ]}
  ]
}
